Structures can show the parent of a compound that is named as a salt.
How the values were obtained:
[1] = test system: ZIKV-induced cell death in human astrocytes; test: ATP cell viability assay for ZIKV-induced cell death, human astrocytes; format: cell-based; conditions: ZIKV-infected human astrocytes
[2] = test system: ZIKV-induced cell death in SNB-19 cells; test: ATP cell viability assay for ZIKV-induced cell death, SNB-19 cells; format: cell-based, human; conditions: ZIKV-infected SNB-19 cells
[3] = test system: ZIKV-induced cell death in hNPCs; test: ATP cell viability assay for ZIKV-induced cell death, hNPCs; format: cell-based, human; conditions: ZIKV-infected hNPCs

COc1cc2nc(N3CCN(C(=O)C4CCCO4)CC3)nc(N)c2cc1OC (stereo not drawn) [Terazosin hydrochloride]
0.0%: Cell viability (efficacy, %) Astrocyte [1] | Cell viability (efficacy, %) SNB-19 [2] | Cell viability (efficacy, %) NPCs [3]

From US10940188B2, “Compounds and methods for treatment and prevention of Flavivirus infection” (priority 2016, dated 2021)
